Biological target: SRC (Homo sapiens (Human), UniProt P12931)
Experiment: Kinase screening assay (IC50)
Assay type: biochemical
Conditions: recombinant kinase, SFK member

The chains behind the UniProt entries cited, without tags or fusion partners.
UniProt P12931, whole entry, looked up: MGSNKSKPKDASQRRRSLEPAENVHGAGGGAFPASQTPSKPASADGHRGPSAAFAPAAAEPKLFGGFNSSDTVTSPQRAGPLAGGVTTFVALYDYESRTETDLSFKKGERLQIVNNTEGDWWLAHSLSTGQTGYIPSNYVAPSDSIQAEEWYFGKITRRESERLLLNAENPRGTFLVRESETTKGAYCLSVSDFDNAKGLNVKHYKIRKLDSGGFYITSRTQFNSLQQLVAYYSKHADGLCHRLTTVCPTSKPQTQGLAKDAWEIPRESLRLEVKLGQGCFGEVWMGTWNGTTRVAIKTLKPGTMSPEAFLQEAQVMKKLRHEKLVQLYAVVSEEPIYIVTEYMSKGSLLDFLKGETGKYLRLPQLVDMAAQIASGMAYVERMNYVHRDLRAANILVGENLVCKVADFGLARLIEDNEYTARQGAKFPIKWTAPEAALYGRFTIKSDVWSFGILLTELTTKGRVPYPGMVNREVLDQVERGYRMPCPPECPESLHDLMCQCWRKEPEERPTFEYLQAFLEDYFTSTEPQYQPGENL

## COc1cc(-c2nn(CCN3CCC(CN(C)C)CC3)c3ncnc(N)c23)ccc1NC(=O)OC(C)(C)C [Compound 503, tert-butyl N-[4-[4-amino-1-[2-[4-(dimethylaminomethyl)-1-piperidyl]ethyl]pyrazolo[3,4-d]pyrimidin-3-yl]-2-methoxy-phenyl]carbamate]
  IC50: < 0.5 nM

Source: patent publication US10294227B2, “Compounds” (UNIVERSITY COURT OF THE UNIVERSITY OF EDINBURGH, priority 2015, dated 2019)
